The Ki is a measure of affinity in units of concentration, obtained from inhibition or displacement.

Protein sequences, listed by entry. Tags and fused reporters are not part of them. Lines headed by an entry give the natural chain unless they say otherwise; changes in a name come on top.
UniProt P35372, whole entry, looked up: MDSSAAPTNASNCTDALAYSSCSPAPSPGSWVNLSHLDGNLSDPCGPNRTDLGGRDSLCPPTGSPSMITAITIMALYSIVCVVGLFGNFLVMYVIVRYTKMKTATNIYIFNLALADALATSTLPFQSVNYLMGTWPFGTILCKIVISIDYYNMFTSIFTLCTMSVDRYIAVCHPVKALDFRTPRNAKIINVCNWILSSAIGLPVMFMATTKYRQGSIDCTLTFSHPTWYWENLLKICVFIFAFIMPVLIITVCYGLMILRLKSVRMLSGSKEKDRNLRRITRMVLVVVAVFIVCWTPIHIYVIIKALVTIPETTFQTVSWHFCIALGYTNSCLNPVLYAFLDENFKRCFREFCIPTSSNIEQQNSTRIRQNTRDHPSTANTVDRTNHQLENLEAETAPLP
UniProt P41146: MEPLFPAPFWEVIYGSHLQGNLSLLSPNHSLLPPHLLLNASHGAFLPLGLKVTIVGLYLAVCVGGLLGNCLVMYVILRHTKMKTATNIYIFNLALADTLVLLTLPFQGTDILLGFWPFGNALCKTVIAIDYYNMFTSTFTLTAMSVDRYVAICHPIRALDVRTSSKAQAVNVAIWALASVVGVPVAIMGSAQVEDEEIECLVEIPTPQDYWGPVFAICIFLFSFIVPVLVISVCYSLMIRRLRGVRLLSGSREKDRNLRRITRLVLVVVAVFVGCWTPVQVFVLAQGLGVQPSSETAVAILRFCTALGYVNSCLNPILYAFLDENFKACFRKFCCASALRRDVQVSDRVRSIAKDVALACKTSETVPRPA

Assay [1] concerns the target human μ-opiate receptor (Homo sapiens, UniProt P35372). Briefly: μ-opiate receptor binding assay with [3H]-naloxone (WGA-SPA beads). Conditions: test concentration 1 μM; CHO-K1 membrane preparation; 1 nmol/l [3H]-naloxone.
For assay [2], the target named is ORL 1-receptor (Homo sapiens, UniProt P41146). Briefly: ORL 1 receptor binding assay with 3H-nociceptine/orphanin FQ (WGA-SPA beads). Conditions: membranes of recombinant CHO-ORL 1 cells, 0.5 nM 3H-nociceptine/orphanin FQ; for Ki: read-out: Ki (ORL1) Mean, mean; for % Inhibition (ORL1) [1 μM]: test concentration 1 μM.

Regarding `CC1CC(c2ccccc2)(N(C)C)CCC12OCCc1c2[nH]c2ncccc12` (stereo not drawn), in assay [1], the “% Inhibition (μ) [1 μM]” value is reported as 84%. Also, in assay [2], the Ki is 230 nM and the “% Inhibition (ORL1) [1 μM]” value was found to be 50%.

Regarding `CC1CC(c2ccccc2)(N(C)C)CCC12OCCc1c2[nH]c2ccccc12` (stereo not drawn), the Ki in assay [2] worked out at 1 nM.

For `CN(C)C1(c2ccccc2)CCC2(OCCc3c2[nH]c2ccccc32)C(CO)C1` (stereo not drawn), the “% Inhibition (μ) [1 μM]” value in assay [1] amounted to 99%. In assay [2], the Ki stood at 63 nM and the “% Inhibition (ORL1) [1 μM]” value is 80%.

On to `CC(=O)OCC1CC(c2ccccc2)(N(C)C)CCC12OCCc1c2[nH]c2ccccc12` (stereo not drawn), for which the “% Inhibition (μ) [1 μM]” value in assay [1] was determined as 75%. For the same molecule, in assay [2], the Ki stood at 340 nM and the “% Inhibition (ORL1) [1 μM]” value was determined as 50%.

Take `CC1CC(c2ccccc2)(N(C)C)CCC12OCCc1c2[nH]c2ccccc12` (racemic): the Ki in assay [2] amounted to 6 nM.

Turning to `CN(C)C1(c2ccccc2)CCC2(NCCc3c2[nH]c2ccccc32)C(Cc2cccc(F)c2)C1` (stereo not drawn), the “% Inhibition (μ) [1 μM]” value in assay [1] amounted to 103%. For the same molecule, in assay [2], the Ki was found to be 107 nM and the “% Inhibition (ORL1) [1 μM]” value is recorded as 97%.

As to “2-(4-(Dimethylamino)-4-phenyl-4′,9′-dihydro-3′H-spiro[cyclohexane-1,1′-pyrano[3,4-b]indole]-2-yl)methyl)isoindoline-1,3-dione”, in assay [2], the “% Inhibition (ORL1) [1 μM]” value came out at 83%.

For `CN(C)C1(c2ccccc2)CCC2(OCCc3c2[nH]c2ccc(F)cc32)C(F)C1` (single isomer, unassigned), in assay [2], the Ki is 2810 nM and the “% Inhibition (ORL1) [1 μM]” value was 29%.

With `CN(C)C1(c2ccccc2)CCC2(NCCc3c2[nH]c2ccccc32)C(Cc2ccccc2)C1.O=C(O)CC(O)(CC(=O)O)C(=O)O` (stereo not drawn), the “% Inhibition (μ) [1 μM]” value in assay [1] stood at 96%. In assay [2], the “% Inhibition (ORL1) [1 μM]” value worked out at 93%.

For `CC1CC(c2ccccc2)(N(C)C)CCC12OCCc1c2[nH]c2ccccc12.O=C(O)CC(O)(CC(=O)O)C(=O)O` (racemic), in assay [1], the “% Inhibition (μ) [1 μM]” value worked out at 106%. For the same molecule, the “% Inhibition (ORL1) [1 μM]” value in assay [2] is reported as 97%.

As for `CN(C)C1(c2ccccc2)CCC2(NCCc3c2[nH]c2ccccc32)C(Sc2ccccc2)C1` (stereo not drawn), in assay [1], the “% Inhibition (μ) [1 μM]” value is reported as 88%. Moreover, in assay [2], the Ki came to 2050 nM and the “% Inhibition (ORL1) [1 μM]” value came out at 73%.

With `CC1CC(c2ccccc2)(N(C)C)CCC12OCCc1c2[nH]c2ccccc12.O=C(O)CC(O)(CC(=O)O)C(=O)O` (stereo not drawn), in assay [1], the “% Inhibition (μ) [1 μM]” value turned out to be 77%. Moreover, the “% Inhibition (ORL1) [1 μM]” value in assay [2] came to 99%.

For the molecule `CN(C)C1(c2ccccc2)CCC2(NCCc3c2[nH]c2ccccc32)C(F)C1` (single isomer, unassigned), in assay [2], the Ki was 27 nM and the “% Inhibition (ORL1) [1 μM]” value worked out at 87%.

As for “N-((4-(dimethylamino)-4-(3-fluorophenyl)-4′,9′-dihydro-3′H-spiro[cyclohexane-1,1′-pyrano[3,4-b]indole]-2-yl)methyl)-3-phenylcinnamic acid amide”, in assay [1], the “% Inhibition (μ) [1 μM]” value amounted to 97%. Also, in assay [2], the Ki came to 70 nM and the “% Inhibition (ORL1) [1 μM]” value is given as 83%.

As to `CN(C)C1(c2ccccc2)CCC2(OCCc3c2[nH]c2ccccc32)C(Sc2ccccc2)C1` (racemic), the “% Inhibition (μ) [1 μM]” value in assay [1] was 90%. For the same molecule, the “% Inhibition (ORL1) [1 μM]” value in assay [2] is reported as 53%.

The record behind these values is patent publication US8293758B2, “Substituted spirocyclic cyclohexane derivatives” (dated 2012).
